Test results reported in ChEMBL document CHEMBL5726848, “Bruton's tyrosine kinase inhibitors” (2019).

By UniProt entry, the sequences of proteins in these tests, tags left out. Where a name states a change or a piece, a line headed by the entry shows the natural chain unless it says otherwise.
UniProt Q06187: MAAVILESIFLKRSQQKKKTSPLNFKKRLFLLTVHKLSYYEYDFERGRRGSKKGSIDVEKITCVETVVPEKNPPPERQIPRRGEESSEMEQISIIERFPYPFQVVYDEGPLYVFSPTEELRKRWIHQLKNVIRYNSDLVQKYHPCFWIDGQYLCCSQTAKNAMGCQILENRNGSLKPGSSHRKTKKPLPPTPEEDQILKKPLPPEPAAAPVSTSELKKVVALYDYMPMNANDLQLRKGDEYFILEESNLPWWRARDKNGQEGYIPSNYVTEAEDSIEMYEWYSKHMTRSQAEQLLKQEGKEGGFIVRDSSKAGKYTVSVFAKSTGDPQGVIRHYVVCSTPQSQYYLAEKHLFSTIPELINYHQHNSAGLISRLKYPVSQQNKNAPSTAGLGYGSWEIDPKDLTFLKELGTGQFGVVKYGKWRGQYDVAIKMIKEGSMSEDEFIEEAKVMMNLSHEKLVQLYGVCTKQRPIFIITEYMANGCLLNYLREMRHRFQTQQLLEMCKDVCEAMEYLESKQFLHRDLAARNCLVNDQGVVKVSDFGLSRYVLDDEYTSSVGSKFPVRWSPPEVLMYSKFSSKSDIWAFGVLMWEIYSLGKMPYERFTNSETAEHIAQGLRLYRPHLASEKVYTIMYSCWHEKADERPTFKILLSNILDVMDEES

Biological target: Tyrosine-protein kinase BTK (Homo sapiens, UniProt Q06187)

N#CCN1CCC(n2nc(-c3ccc(Oc4ccccc4)cc3)c(C(N)=O)c2N)CC1
IC50: 0.0117 µM
